Molecular target: T1, M. avium DHFR (Mycobacterium avium, UniProt O30463)
T1 sequence (O30463 1-181): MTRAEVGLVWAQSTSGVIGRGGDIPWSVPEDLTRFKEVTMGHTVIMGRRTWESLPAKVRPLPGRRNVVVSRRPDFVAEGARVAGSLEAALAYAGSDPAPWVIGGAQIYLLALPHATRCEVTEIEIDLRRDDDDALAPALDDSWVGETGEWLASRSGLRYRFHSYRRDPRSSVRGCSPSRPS
Assay: Inhibition of M. avium DHFR (literature assay)
Type: biochemical
Conditions: compounds 3a-k

CCCCCCCCOc1ccc(OC)c(Cc2cnc(N)nc2N)c1 [Compound 3d, 2,4-Diamino-5-(2-methoxy-5-octyloxybenzyl)pyrimidine]
IC50: 3.3 µM

COc1ccc(OCCCCCCCCC(=O)O)cc1Cc1cnc(N)nc1N [Compound 3k]
IC50: 0.15 µM

Reference: US7119095B2, “Pharmaceutically active compounds and methods of use thereof” (Dana Farber Cancer Institute, priority 2001, dated 2006)
